# Experimental data as given in patent US4324796A, “Substituted oxiranecarboxylic acids, their use and medicaments containing them” (BYK Gulden Lomberg Chemische Fabrik Gesellschaft mit …, priority 1979, dated 1982).
# Tested on: blood glucose concentration
# Assay: Blood glucose lowering after single oral administration, fasting metabolically healthy guinea pigs
# Format: in vivo, guinea pigs (young cross-bred male)
# Details: Cavia porcellus, Table III column A, guinea pig p.o., 5 hours, vs control group, read-out: ED50 (25%): dose which effects a lowering of the blood glucose concentration by at least 25% in 50% of the animals
row,SMILES,ED50 [mg/kg]
1,"CCOC(=O)C1(CCCc2ccc(Cl)cc2)CO1 (stereo not shown) [Serial No. 3, 2-[3-(4-Chlorophenyl)propyl]oxirane-2-carboxylic acid ethyl ester]",22
2,"CCOC(=O)C1(CCCc2cccc(C(F)(F)F)c2)CO1 (stereo not shown) [Serial No. 5, 2-[3-(3-Trifluoromethylphenyl)propyl]oxirane-2-carboxylic acid ethyl ester]",< 24
3,"CCOC(=O)C1(CCCCCc2ccccc2)CO1 (stereo not shown) [Serial No. 7, 2-(5-Phenylpentyl)oxirane-2-carboxylic acid ethyl ester]",21
4,"CCOC(=O)C1(CCCCCc2ccc(Cl)cc2)CO1 (stereo not shown) [Serial No. 9, 2-[5-(4-Chlorophenyl)pentyl]oxirane-2-carboxylic acid ethyl ester]",< 24
